# Ab-14 light chain CDR variants: yeast mating affinities

The target is the same throughout: PDVDLGDISGINAS, from the HR2 region of SARS-CoV-2 spike.

Each scFv is VH, the linker GGGGSGGGGSGGGGS, VL, as in the parent Ab-14, and differs from it in the CDRs of the light chain only.
VH: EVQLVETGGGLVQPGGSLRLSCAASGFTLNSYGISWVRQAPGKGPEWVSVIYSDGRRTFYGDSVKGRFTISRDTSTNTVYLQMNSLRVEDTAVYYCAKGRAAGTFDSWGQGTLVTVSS
VL: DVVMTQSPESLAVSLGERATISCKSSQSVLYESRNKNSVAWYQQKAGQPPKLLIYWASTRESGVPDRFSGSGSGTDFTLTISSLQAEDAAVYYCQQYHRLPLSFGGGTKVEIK

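Phage display of a naive human antibody library on the peptide gave the parent. The variants were designed computationally from a first round of random CDR variants and then made and measured. Their group label is 14L_En_Gen (En: ensemble of fine-tuned language models; Gen: genetic algorithm). In AlphaSeq, yeast of one mating type display the scFv and yeast of the other type display the target. Pairs that bind mate more often; barcode pairs of the diploids are counted by sequencing. The ratio of observed to expected reads was calibrated, replicate by replicate, on BCL2-family standards whose Kd was known from biolayer interferometry. There are six technical replicates.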

Variants are written as CDR1, CDR2 and CDR3 of the light chain (limits as in the source). Parent: KSSQSVLYESRNKNSVA, WASTRES, QQYHRLPLS.
Scale: log10 of Kd in nM, estimated from mating counts; low values are strong binders.
Replicates are averaged; those with no signal do not enter the mean.
A pair that was not seen in that replicate is written "n.d."; this usually means weak binding, but a binder can also be missed.
Three control strains display no target. For all light chain designs, 4% of the pairings with them gave a signal, with a median of 2.64 and one signal in twenty below 1.59, so weak values seen in few replicates may be background. Also given: how often the same scFv was detected with the empty control strains, with their mean in brackets.
The authors averaged sequences with at least three values out of six and counted those with two or fewer as poor binders.
Values of this round are not directly comparable with the first-round values of the same sequences.
Of ten entries with the parent sequence, four were seen in most replicates (averages 0.34 to 2.37), three in one and three in none, so single entries are noisy.

{"CDR-L1": "KLSQITGHMSMSKDNVA", "CDR-L2": "EMETREN", "CDR-L3": "QQYDRLPLS", "log10 Kd, replicates": "1.90 3.90 2.23 2.97 1.76 1.65", "log10 Kd (nM), mean": "2.40", "empty controls": "2/18 (2.79)"}
{"CDR-L1": "KVSEFMRGLMKMKDSIA", "CDR-L2": "DNETRPN", "CDR-L3": "QQYDRLPLS", "log10 Kd, replicates": "2.98 2.38 1.74 2.01 1.57 1.83", "log10 Kd (nM), mean": "2.08", "empty controls": "1/18 (2.63)"}
{"CDR-L1": "MVSQLMLWGLHAKNSIA", "CDR-L2": "HAQMRLN", "CDR-L3": "QQYDRLPLM", "log10 Kd, replicates": "n.d. 2.43 n.d. n.d. n.d. n.d.", "log10 Kd (nM), mean": "2.43", "empty controls": "1/18 (1.74)"}
{"CDR-L1": "MMSQVTMSGMRHRNNVA", "CDR-L2": "QTSTREP", "CDR-L3": "QQYDRLPLV", "log10 Kd, replicates": "0.68 0.91 0.42 1.07 0.98 1.02", "log10 Kd (nM), mean": "0.85", "empty controls": "1/18 (2.16)"}
{"CDR-L1": "HMSMITLGGMRARNSVA", "CDR-L2": "QMTTREN", "CDR-L3": "QQYDRLPLS", "log10 Kd, replicates": "1.11 0.55 0.51 0.83 0.54 0.78", "log10 Kd (nM), mean": "0.72", "empty controls": "0/18"}
{"CDR-L1": "KIGQTLNQLMHQINNVA", "CDR-L2": "DLVMREK", "CDR-L3": "QQYHRLPLS", "log10 Kd, replicates": "1.09 0.39 0.52 0.34 0.30 0.36", "log10 Kd (nM), mean": "0.50", "empty controls": "0/18"}
{"CDR-L1": "QISQLMGLSMHGTNNVA", "CDR-L2": "QMETREK", "CDR-L3": "QQYDRLPLS", "log10 Kd, replicates": "1.00 0.82 0.63 0.66 0.50 0.76", "log10 Kd (nM), mean": "0.73", "empty controls": "2/18 (2.53)"}
{"CDR-L1": "MISQLYNMGQFAINSVA", "CDR-L2": "QASIRNA", "CDR-L3": "QQYDRLPLA", "log10 Kd, replicates": "n.d. n.d. n.d. n.d. 1.97 2.49", "log10 Kd (nM), mean": "2.23", "empty controls": "0/18"}
{"CDR-L1": "MMSSLMGYESRHINNVA", "CDR-L2": "QTSTRES", "CDR-L3": "QQYDRLPLM", "log10 Kd, replicates": "0.61 0.57 0.50 0.96 0.49 0.99", "log10 Kd (nM), mean": "0.69", "empty controls": "0/18"}
{"CDR-L1": "HITMGMYVKGRHHSSIA", "CDR-L2": "QAETRAK", "CDR-L3": "QQYDRLPLI", "log10 Kd, replicates": "n.d. 3.19 2.36 n.d. 2.96 2.60", "log10 Kd (nM), mean": "2.78", "empty controls": "0/18"}
{"CDR-L1": "IVSQLMLWGMHAKNSIA", "CDR-L2": "EAETRIN", "CDR-L3": "QQYVRLPLF", "log10 Kd, replicates": "n.d. n.d. n.d. 0.95 n.d. 0.99", "log10 Kd (nM), mean": "0.97", "empty controls": "2/18 (1.40)"}
{"CDR-L1": "KISMVTGHMSMSKNNVA", "CDR-L2": "EMETREN", "CDR-L3": "QQYDRLPLS", "log10 Kd, replicates": "2.43 1.16 2.10 0.86 1.48 0.91", "log10 Kd (nM), mean": "1.49", "empty controls": "0/18"}
{"CDR-L1": "QIYQAMHTLMNAKNNIA", "CDR-L2": "DVTNRNN", "CDR-L3": "QQYHRLPLS", "log10 Kd, replicates": "0.82 0.67 0.70 0.75 0.59 0.79", "log10 Kd (nM), mean": "0.72", "empty controls": "1/18 (2.26)"}
{"CDR-L1": "KLVQFMNRGTHHTSNIA", "CDR-L2": "DAVNRID", "CDR-L3": "QQYYRLPLA", "log10 Kd, replicates": "0.54 0.73 0.63 0.76 0.26 0.91", "log10 Kd (nM), mean": "0.64", "empty controls": "0/18"}
{"CDR-L1": "IVSQVMSWGIHAKNSIA", "CDR-L2": "EAQTRLN", "CDR-L3": "QQYDRLPLF", "log10 Kd, replicates": "2.58 1.37 3.55 1.44 1.82 2.30", "log10 Kd (nM), mean": "2.18", "empty controls": "1/18 (2.59)"}
{"CDR-L1": "KLSQVTGHLSVEKNNVA", "CDR-L2": "EMETREP", "CDR-L3": "QQYDRLPLS", "log10 Kd, replicates": "0.49 0.30 0.96 1.20 0.98 2.07", "log10 Kd (nM), mean": "1.00", "empty controls": "0/18"}
{"CDR-L1": "SISGFMKSSMAHKNNVA", "CDR-L2": "DMTNREN", "CDR-L3": "QQYDRLPLS", "log10 Kd, replicates": "-0.01 0.12 0.08 -0.16 -0.14 0.21", "log10 Kd (nM), mean": "0.02", "empty controls": "3/18 (3.08)"}
{"CDR-L1": "TISELYNQALGMRNNVA", "CDR-L2": "NNQTRED", "CDR-L3": "QQYDRLPLS", "log10 Kd, replicates": "n.d. 5.46 3.20 3.98 2.28 3.05", "log10 Kd (nM), mean": "3.60", "empty controls": "2/18 (3.27)"}
{"CDR-L1": "KIGQTLNQLMHQKNNVA", "CDR-L2": "DLVTREA", "CDR-L3": "QQYHRLPLS", "log10 Kd, replicates": "0.61 0.56 0.60 0.43 0.52 0.39", "log10 Kd (nM), mean": "0.52", "empty controls": "1/18 (1.74)"}
{"CDR-L1": "HLGLATMLEEYVRNSVA", "CDR-L2": "NNSTRES", "CDR-L3": "QQYDRLPLS", "log10 Kd, replicates": "n.d. 2.01 1.62 n.d. 3.42 n.d.", "log10 Kd (nM), mean": "2.35", "empty controls": "2/18 (3.05)"}
{"CDR-L1": "TISQMTSLFSQSINNVA", "CDR-L2": "EVSCREN", "CDR-L3": "QQYDRLPLS", "log10 Kd, replicates": "n.d. 1.99 1.77 1.80 1.33 n.d.", "log10 Kd (nM), mean": "1.72", "empty controls": "0/18"}
{"CDR-L1": "HITYGMMIAGRHSKSIA", "CDR-L2": "QAEERAK", "CDR-L3": "QQYDRLPLS", "log10 Kd, replicates": "0.47 0.39 0.35 0.21 0.28 0.67", "log10 Kd (nM), mean": "0.39", "empty controls": "1/18 (2.78)"}
{"CDR-L1": "MISQVMNTLTRHGNNVA", "CDR-L2": "DLQEREV", "CDR-L3": "QQYFRLPLS", "log10 Kd, replicates": "2.30 2.32 1.42 1.88 1.55 1.75", "log10 Kd (nM), mean": "1.87", "empty controls": "0/18"}

Repeated from above, the 2 best binders with a signal in all replicates:

{"CDR-L1": "SISGFMKSSMAHKNNVA", "CDR-L2": "DMTNREN", "CDR-L3": "QQYDRLPLS", "log10 Kd, replicates": "-0.01 0.12 0.08 -0.16 -0.14 0.21", "log10 Kd (nM), mean": "0.02", "empty controls": "3/18 (3.08)"}
{"CDR-L1": "HITYGMMIAGRHSKSIA", "CDR-L2": "QAEERAK", "CDR-L3": "QQYDRLPLS", "log10 Kd, replicates": "0.47 0.39 0.35 0.21 0.28 0.67", "log10 Kd (nM), mean": "0.39", "empty controls": "1/18 (2.78)"}

The measurements come from Li et al. 2023 (doi:10.1038/s41467-023-39022-2) through the FLAb antibody collection.